Reference: ChEMBL document CHEMBL4400563, “Discovery of a small molecule RXFP3/4 agonist that increases food intake in rats upon acute central administration” (Bioorg Med Chem Lett, 2019)

Assays:
[1] = biological target: T1, Relaxin-3 receptor 1 (Homo sapiens) (UniProt Q9NSD7); assay: Agonist activity at human RXFP3 expressed in CHOK1 cells assessed as inhibition of forskolin-stimulated intracellular cAMP accumulation preincubated for 30 mins followed by forskolin-stimulation and measured after 30 mins by HTRF assay relative to relaxin-3; assay type: functional, cell-based
T1 sequence (whole entry): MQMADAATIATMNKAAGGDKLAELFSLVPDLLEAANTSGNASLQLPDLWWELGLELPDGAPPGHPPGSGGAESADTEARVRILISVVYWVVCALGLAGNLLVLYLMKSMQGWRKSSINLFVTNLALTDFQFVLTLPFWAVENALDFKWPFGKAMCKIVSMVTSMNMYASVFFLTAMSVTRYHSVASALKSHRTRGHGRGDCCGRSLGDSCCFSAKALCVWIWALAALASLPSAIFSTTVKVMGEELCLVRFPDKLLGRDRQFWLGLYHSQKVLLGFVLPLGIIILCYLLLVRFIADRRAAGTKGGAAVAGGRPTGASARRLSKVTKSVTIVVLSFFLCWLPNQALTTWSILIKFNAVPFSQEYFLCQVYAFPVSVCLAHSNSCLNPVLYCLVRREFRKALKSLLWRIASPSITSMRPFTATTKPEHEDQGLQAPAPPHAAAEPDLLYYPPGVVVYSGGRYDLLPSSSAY

Relaxin-3 receptor 1 = biological target: T2, Relaxin-3 receptor 1 (Homo sapiens, UniProt Q9NSD7); assay: Displacement of [125I]-R3/I5 from human RXFP3 expressed in CHOK1 cell membranes by radioligand binding assay; assay type: cell-based
T2 sequence (Q9NSD7 whole entry): T1 sequence (whole entry)

- Emax [1]: 97 to 97.3%
- Ki (Relaxin-3 receptor 1): 1700 nM
Compound: COc1cc(C)c2[nH]cc(/C=N/NC(=N)NCCc3ccc(Cl)c(Cl)c3)c2c1
